uPA generation = cell surface uPA generation inhibition; cell surface uPA generation assay, qHTS; Potency, µM (titrated, usually from 38.3 µM), for the others: at the top dose activity change, negative = inhibition, most hits filed as inhibitors; hit rate 0.31% among 330,000; AID 540303; active means well fitted inhibition curve with a large enough effect; inconclusive means small, poorly fitted or top-dose-only effect; inactive means no such curve, though single readings can be large or run the other way; tested in mouse RAW 264.7 cells; further: potency means the concentration at half of the fitted maximal effect; on the % scale 0 is the no-effect control and ±100 the full control effect; nearly all actives have a fitted effect of over 55% in size
miR-21 FLuc = miR-21 reporter, rising signal. HeLa miR-21 FLuc reporter, luciferase, 48 h. Potency, µM (highest dose often 38.3 µM), for the others: at the highest dose reporter change, positive = more light. 340,000 tested, under 10 active. AID 2288; active = well fitted rising curve with a large enough effect; inconclusive = small, poorly fitted or top-dose-only effect; inactive = no such curve, though single readings can be large or run the other way;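 further: % of control where 0% means no effect; miR-21 action dims this reporter so a rising signal means less miR-21 action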
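Using DMEM plus 10% FBS, HeLa miR-21-FLuc cells are incubated with test compounds (final up to about 40uM) for 48 hours; firefly luciferase signal is then imaged following reagent-mediated lysis.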
TDP1 cell CPT = growth inhibition of DT40 Tdp1-/-;hTDP1 cells with camptothecin (screen for TDP1 inhibitors); chicken DT40 Tdp1-/-;hTDP1 cells + 20 nM CPT, ATP luminescence, 48 h; Potency, µM (doses to about 46.2 µM), for inactives: at the top dose activity change, negative = growth inhibition, actives largely listed as inhibitors; hit rate 12% among 420,000; further: potency means the concentration at half of the fitted maximal effect; on the % scale 0 is the no-effect control and ±100 the full control effect; nearly all actives have a fitted effect of over 55% in size
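Chicken DT40 Tdp1-/- cells complemented with human TDP1, 400 cells/well, exposed to compounds plus 20 nM camptothecin for at least 48 h at 37 C; viability read as ATP content by CellTiter-Glo luminescence.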
TDP1 cell noCPT = qHTS for Inhibitors of human tyrosyl-DNA phosphodiesterase 1 (TDP1): qHTS in cells in absence of CPT; hit rate 15% among 420,000; DT40 Tdp1-/- hTDP1 cells, no CPT, ATP luminescence, 48 h; Potency, µM (doses to about 46.2 µM), for inactives: at the highest dose activity change, negative = growth inhibition, usual class: inhibitors; further: potency means the concentration at half of the fitted maximal effect; on the % scale 0 is the no-effect control and ±100 the full control effect; nearly all actives have a fitted effect of over 55% in size
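DT40 Tdp1-/-;hTDP1 cells, no CPT (DMSO vehicle only), 400 cells/well; compounds pin-transferred; ≥48 hr, 37 °C; CellTiter-Glo 30 min RT dark, luminescence read.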
TDP1 inh = inhibitors of human tyrosyl-DNA phosphodiesterase TDP1 | Q9NUW8 | recombinant TDP1, AlphaScreen DNA substrate cleavage | Potency, µM (series often up to 130 µM), inactives show top-dose activity change, negative = inhibition, most hits filed as inhibitors | hit rate 0.28% among 350,000 | AID 485290; further: potency means the concentration at half of the fitted maximal effect; on the % scale 0 is the no-effect control and ±100 the full control effect; nearly all actives have a fitted effect of over 40% in size
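Enzyme-compound mixtures sat 15 min at room temperature, followed by a 5 min reaction with 15 nM final substrate and 10 min with AlphaScreen beads. Recombinant human Tdp1 was used at 1 nM final.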
* = called active by the depositor; ? = inconclusive; . = no result given; ! = a repeat was not active; [ ] = dose if it differs, or a comment. An excerpt weighted towards active compounds, which were near 16% of everything screened. Unless noted, the call rests on the fitted dose curve; in most records, active means well fitted curve in the direction sought with a large enough effect; inconclusive means small, poorly fitted or top-dose-only effect, or another doubt; inactive means no such curve, though single readings can be large; an effect the other way counts as inactive or inconclusive.

Value order – uPA generation, miR-21 FLuc, TDP1 cell CPT, TDP1 cell noCPT, TDP1 inh
- CSCCCNC(=O)c1ccccc1OC1CCN(S(C)(=O)=O)CC1
→ -5%, -2%, 3%, -6%, 2%
- CC1CCCCC1NC(=O)C1CCCN(S(=O)(=O)c2ccc(-n3cnnn3)cc2)C1 (stereo not given)
→ ., -3%, 2%, -20%, 11%
- COc1cc2[nH]c(=S)nc(NC3CCCCCC3)c2cc1OC
→ -3%, -20%, ?, ?, 8%
- CCN(CC)c1nc(NC2CCN(C)CC2)c2cc(OC)c(OC)cc2n1
→ ., ., 5.6µM*, 10µM*, .
- C=CCNc1nc(NC2CCN(C)CC2)c2cc(OC)c(OC)cc2n1
→ ., ., 13µM*, ?, .
- CCOC(=O)C1C(=O)C=C(c2ccc(C)cc2)CC1c1ccc([N+](=O)[O-])cc1 (stereo not given)
→ 1%, -3%, ?, 13µM*, -3%
- O=C(Nc1cc(SCCO)cc([N+](=O)[O-])c1)c1ccc(Br)o1
→ -2%, 18%, ?, 21µM*, 8%
- CCc1nnc(NC(=O)c2ccc(S(=O)(=O)N(CC)Cc3ccccc3)cc2)o1
→ -10%, 28%, 12µM*, 7.3µM*, 9%
- CCN(CC)S(=O)(=O)c1ccc(C(=O)Nc2nnc(CSC)o2)cc1
→ -6%, 9%, 9%, 24%, 6%
- CCc1nnc(NC(=O)c2ccc(S(=O)(=O)N(C)Cc3ccccc3)cc2)o1
→ ?, ?, 16µM*, 21µM*, 3%
- COc1ccccc1-c1nnc(NC(=O)c2ccc(S(=O)(=O)N(C)Cc3ccccc3)cc2)o1
→ -3%, -5%, 13µM*, 9.2µM*, 10%
- CCN(Cc1ccccc1)S(=O)(=O)c1ccc(C(=O)Nc2nnc(C)o2)cc1
→ -13%, 27%, 23µM*, ?, 5%
- Cc1ccccc1Nc1nc(N)nc(COC(=O)C2CCCCC2)n1
→ 5%, -25%, -22%, -28%, 3%
- Cc1ccc(C)c(N2C(=O)N(C)c3ccccc3S2(=O)=O)c1
→ ., 22%, ?, ?, 3%
- CCCC(=O)OCc1cnc(C)c2oc(=O)c(C(=O)Nc3ccccc3)cc12
→ ., 1%, ., ., 1%
- COc1ccc(CCNC(=O)C(=O)c2c(C)n(C)c3ccccc23)cc1OC
→ -4%, -27%, 4%, 7%, 2%
- CCCCN(CCCC)S(=O)(=O)c1ccc(C(=O)Nc2nnc(COC)o2)cc1
→ -3%, 28%, 18µM*, 16µM*, 12%
- CCN(CC)S(=O)(=O)c1ccc(C(=O)Nc2nnc(COC)o2)cc1
→ 18%, 0%, 2%, 7%, 5%
- CN(Cc1ccccc1)S(=O)(=O)c1ccc(C(=O)Nc2nnc(C3CC3)o2)cc1
→ -6%, ?, 15µM*, 21µM*, 12%
- CCOC(=O)c1c(NC(=O)COc2ccc(C)cc2C(C)(C)C)sc2c1CCC(C)C2 (stereo not given)
→ ., 2%, 5%, -22%, 2%[12.3 µM]
- O=C(NCCN1C(=O)CSC1=O)c1ccccc1
→ -4%, -7%, 0%, -5%, 3%
- O=C(COc1ccc(Br)cc1Cl)N1CCN(c2ccccn2)CC1
→ -6%, -8%, -1%, -7%, 2%
- CCc1ccc(OCC(=O)N2CCN(c3ccccn3)CC2)c(Br)c1
→ 9%, -5%, 13µM*, ?, 2%
- Cc1cc(OCC(=O)N2CCN(c3ccccn3)CC2)cc(C)c1Br
→ 1%, -5%, ?, 16µM*, 3%[56.1 µM]
- Cc1cccc(NC(=O)CSc2nnc(Cn3nnc(-c4ccccc4)n3)n2-c2ccccc2)c1
→ ., -3%, ?, -14%, -4%
- COCCNC(=O)C1(C)CCCN(C(=O)c2cccnc2SC)C1 (stereo not given)
→ ., ., -11%, 0%, .
- CC(=O)NC(CCc1ccc(Cl)c(Cl)c1)c1cccc(O)c(=O)c1 (stereo not given)
→ ., ., 23µM*, 7.3µM*, .
- COc1ccc(-n2cc(-c3ccccc3)c3c(N4CCOCC4)ncnc32)cc1
→ 0%, 16%, ?, 18µM*, 5%
- CCOC(=O)C(CC)Sc1ncnc2c1c(-c1ccccc1)cn2-c1ccc(OC)cc1 (stereo not given)
→ ., 15%, ?, 21µM*, -3%
- c1ccc(-c2cn(-c3ccccc3)c3ncnc(NCCCN4CCOCC4)c23)cc1
→ 1%, 7%, ?, ?, 1%
- Brc1ccc(-n2cc(-c3ccccc3)c3c(NN4CCOCC4)ncnc32)cc1
→ 8%, -3%, 18µM*, ?, 8%
- CCN1CCN(c2ncnc3c2c(-c2ccccc2)cn3-c2ccc(F)cc2)CC1
→ 0%, -2%, ?, ?, 1%
- Fc1ccc(-n2cc(-c3ccccc3)c3c(N4CCOCC4)ncnc32)cc1
→ 7%, 15%, 21µM*, 21µM*, 1%
- COc1ccc(-n2cc(-c3ccccc3)c3c(=O)[nH]cnc32)cc1
→ -17%, 1%, 15%, -9%, 0%
- COCCN1C(=O)N(c2cccc(OC)c2)C(=O)C1CC(=O)Nc1ccccc1 (stereo not given)
→ ., -7%, 9%, -8%, 4%
- CCc1ccccc1NC(=O)CNC(=O)c1cn(Cc2ccccc2)nc1-c1cccnc1
→ -2%, ., -5%, -21%, 1%
- CCN(c1ncnc2c1c(-c1ccccc1)cn2-c1ccccc1)C1CCCCC1
→ ., 3%, -20%, 0%, -3%
- Fc1ccc(-n2cc(-c3ccccc3)c3c(NC4CCCCC4)ncnc32)cc1
→ ., 3%, 21µM*, 23µM*, 3%
- O=C(N[C@@H]1CCC(=O)N(CC[C@H](Oc2ccccc2)c2ccccc2)CC1)OCc1ccccc1
→ 1%, 12%, 15µM*, ?, .
- N#CC[C@H](Cc1ccccc1)N1CC[C@@H](NC(=O)OCc2ccccc2)CCC1=O
→ 5%, 1%, ?, ?, .

Compound profiles, as listed above. Screens in order: uPA generation, miR-21 FLuc, TDP1 cell CPT, TDP1 cell noCPT, TDP1 inh
CCN1CCN(c2ncnc3c2c(-c2ccccc2)cn3-c2ccc(F)cc2)CC1 as listed: 0%, -2%, ?, ?, 1%
Fc1ccc(-n2cc(-c3ccccc3)c3c(NC4CCCCC4)ncnc32)cc1 as listed: ., 3%, 21µM*, 23µM*, 3%

Returning to the listing, repeating the 4 entries before the break.
Value order – uPA generation, miR-21 FLuc, TDP1 cell CPT, TDP1 cell noCPT, TDP1 inh
- CCN(c1ncnc2c1c(-c1ccccc1)cn2-c1ccccc1)C1CCCCC1
→ ., 3%, -20%, 0%, -3%
- Fc1ccc(-n2cc(-c3ccccc3)c3c(NC4CCCCC4)ncnc32)cc1
→ ., 3%, 21µM*, 23µM*, 3%
- O=C(N[C@@H]1CCC(=O)N(CC[C@H](Oc2ccccc2)c2ccccc2)CC1)OCc1ccccc1
→ 1%, 12%, 15µM*, ?, .
- N#CC[C@H](Cc1ccccc1)N1CC[C@@H](NC(=O)OCc2ccccc2)CCC1=O
→ 5%, 1%, ?, ?, .
- Cc1ccc(SC[C@H](C)CN2CC[C@H](NC(=O)OCc3ccccc3)CCC2=O)cc1
→ -2%, 1%, 16µM*!, 11µM*, .
- Cc1ccc(SC[C@H](C)CN2CC[C@H](C(C)(C)C)CCC2=O)cc1
→ 7%, 3%, ?, 16µM*, .
- COc1ccc(SC[C@H](Cc2ccccc2)N2CC[C@@H](NC(=O)OCc3ccccc3)CCC2=O)cc1
→ ?, ., ?, 16µM*, 1%
- N#Cc1ncc(C(F)(F)F)cc1Sc1ccc(N)cc1
→ -4%, -17%, ?, -33%, 4%
- Cc1ccc(S[C@@H](CCN2CC[C@H](NC(=O)OCc3ccccc3)CCC2=O)c2ccccc2)cc1
→ -2%, 15%, 23µM*, 11µM*, .
- COc1ccc(S[C@@H](CCN2CC[C@H](O)CCC2=O)c2ccccc2)cc1
→ 3%, ., ?, ?, 6%
- COc1ccc(SCCN2CC[C@@H](NC(=O)OCc3ccccc3)CCC2=O)cc1
→ 2%, ., ?, ?, 0%

Screening data as filed in PubChem BioAssay.
